This passage reports inhibition results from PubChem BioAssay AID624466 (The Scripps Research Institute Molecular Screening Center, 2012).

Chains of the proteins cited; added tags and fusions are not shown.
UniProt Q96RJ0, whole entry: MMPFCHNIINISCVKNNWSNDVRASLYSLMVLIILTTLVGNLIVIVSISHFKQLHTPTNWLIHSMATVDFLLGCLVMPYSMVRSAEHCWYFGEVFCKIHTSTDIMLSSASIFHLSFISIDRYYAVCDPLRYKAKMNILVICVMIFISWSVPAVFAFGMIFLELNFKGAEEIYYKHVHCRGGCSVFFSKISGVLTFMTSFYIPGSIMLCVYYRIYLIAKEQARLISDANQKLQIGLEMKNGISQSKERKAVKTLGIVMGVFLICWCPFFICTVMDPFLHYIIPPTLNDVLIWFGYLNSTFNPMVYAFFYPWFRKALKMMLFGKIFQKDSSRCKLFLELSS

Molecules are shown by their SMILES. The entries are a selection whose mix differs from that of the whole data set. Some tests of the compounds listed are not included; inactive here does not mean inactive elsewhere. The source made the active and inactive calls.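 How the source made its calls: active means inhibition above a per-plate cutoff, the mean inhibition of test compounds on that plate plus 3 SD (cut at about 49% in these data); inactive means the rest.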

Usually inhibition stands for the change of the read-out against control, counted positive when it falls.

This assay deals with Trace amine-associated receptor 1 (Homo sapiens) (UniProt Q96RJ0). Briefly: human TAAR1 antagonists, primary screen, Fluo-8 calcium fluorescence, CHO RD-HGA16 cells (AID 624466).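 Further: 0% = DMSO plus EC80 beta-PEA response and 100% = DMSO alone without agonist.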 The following applies: CHO RD-HGA16 TAAR1, Fluo-8 calcium fluorescence, antagonist; at 3 µM; stronger effect = higher value.
As to `COc1ccc(C(=O)NCC2(N(C)C)CCCCC2)cc1`, the inhibition is inactive: -10.7%.

For `Cc1cc(C(=O)NCC2(N3CCCCC3)CCCCC2)ccc1[N+](=O)[O-]`, the inhibition was inactive: -19.3%.

As for `CCN1CCCC(OC(=O)C2(O)c3ccccc3C=Cc3ccccc32)C1` (stereo unspecified), the inhibition was inactive: -6.24%. As for `O=C(NCC1(N2CCCCC2)CCCCC1)c1cccc(Br)c1`, the figure is inactive: -0.72%; as for `C=CCN1CCN(CCOC(=O)C(O)(c2ccccc2)c2ccccc2)CC1`, inactive: 2.87%; as for `O=C(NCC1(N2CCCCC2)CCCCC1)c1cc(F)c(F)cc1Cl`, inactive: -7.13%. On to `Cc1ccccc1C(=O)NCC1(N2CCCCC2)CCCCC1`, for which the inhibition was inactive: -0.09%.

Consider `CN(C)C1CCCC1OC(=O)C(O)(c1ccccc1)c1ccccc1` (stereo unspecified), for which the inhibition is inactive: -7.39%. The value for `CN(C)c1ccc(C(=O)NCC2(N(C)C)CCCCC2)cc1` was inactive: -10.5%; that for `Cc1ccc(C(=O)NCC2(N3CCCCC3)CCCCC2)cc1` was inactive: 3.17%.

As to `CCN(CC)CC(C)C(C)OC(=O)C(O)(c1ccccc1)c1ccccc1` (stereo unspecified), the inhibition was inactive: -20.4%. Consider `COc1cc(SC)ccc1C(=O)NCC1(N(C)C)CCCCC1`, for which the inhibition was inactive: -0.64%. Turning to `CC(C)N1C(=O)CC2(CCN(CCOC(=O)C(O)(c3ccccc3)c3ccccc3)CC2)C1=O`, the inhibition is inactive: 0.14%. The value for `CN1[C@@H]2CC[C@H]1CC(OC(=O)C(O)(c1ccccc1)c1ccccc1)C2` (stereo partly specified) was inactive: 1.5%. For the compound `O=C(NCC1(N2CCCCC2)CCCCC1)c1cc([N+](=O)[O-])ccc1Cl`, the inhibition was inactive: -23.5%. On to `CC(C)Oc1ccc(C(=O)NCC2(N(C)C)CCCCC2)cc1`, for which the inhibition was inactive: -6.29%. The value for `O=C(OCCN1CCCC1)C(O)(c1ccccc1)c1ccccc1` was inactive: -3.72%; that for `CN(C)c1cccc(C(=O)NCC2(N(C)C)CCCCC2)c1` was inactive: -11.8%; that for `C=C(C)C#CC(O)(C(=O)OC1CCN(C)CC1)c1ccccc1` (stereo unspecified) was inactive: -20.4%. Take `COc1ccc(Br)c(C(=O)NCC2(N3CCCCC3)CCCCC2)c1`: the inhibition is inactive: -9.04%.

As to `O=C(OC1CN2CCC1CC2)C(CO)(c1ccccc1)c1ccccc1` (stereo unspecified), the inhibition was inactive: 4.36%. As for `O=C(NCC1(N2CCCCC2)CCCCC1)c1cccc(Cl)c1`, the figure is inactive: 1.18%; as for `COc1cccc(C(=O)NCC2(N3CCCCC3)CCCCC2)c1`, inactive: -3.16%. As for `COc1ccc(Cl)cc1C(=O)NCC1(N(C)C)CCCCC1`, the figure is inactive: -17%; as for `COc1cc(C(=O)NCC2(N(C)C)CCCCC2)c([N+](=O)[O-])cc1OC`, inactive: -6.23%. The value for `CN(C)C1(CNC(=O)c2ccc(Br)cc2)CCCCC1` was inactive: 3.33%.
